By UniProt entry, the sequences of proteins in these tests, tags left out.
Neuropilin-1 (Homo sapiens), O14786, UniProt O14786, whole entry, looked up: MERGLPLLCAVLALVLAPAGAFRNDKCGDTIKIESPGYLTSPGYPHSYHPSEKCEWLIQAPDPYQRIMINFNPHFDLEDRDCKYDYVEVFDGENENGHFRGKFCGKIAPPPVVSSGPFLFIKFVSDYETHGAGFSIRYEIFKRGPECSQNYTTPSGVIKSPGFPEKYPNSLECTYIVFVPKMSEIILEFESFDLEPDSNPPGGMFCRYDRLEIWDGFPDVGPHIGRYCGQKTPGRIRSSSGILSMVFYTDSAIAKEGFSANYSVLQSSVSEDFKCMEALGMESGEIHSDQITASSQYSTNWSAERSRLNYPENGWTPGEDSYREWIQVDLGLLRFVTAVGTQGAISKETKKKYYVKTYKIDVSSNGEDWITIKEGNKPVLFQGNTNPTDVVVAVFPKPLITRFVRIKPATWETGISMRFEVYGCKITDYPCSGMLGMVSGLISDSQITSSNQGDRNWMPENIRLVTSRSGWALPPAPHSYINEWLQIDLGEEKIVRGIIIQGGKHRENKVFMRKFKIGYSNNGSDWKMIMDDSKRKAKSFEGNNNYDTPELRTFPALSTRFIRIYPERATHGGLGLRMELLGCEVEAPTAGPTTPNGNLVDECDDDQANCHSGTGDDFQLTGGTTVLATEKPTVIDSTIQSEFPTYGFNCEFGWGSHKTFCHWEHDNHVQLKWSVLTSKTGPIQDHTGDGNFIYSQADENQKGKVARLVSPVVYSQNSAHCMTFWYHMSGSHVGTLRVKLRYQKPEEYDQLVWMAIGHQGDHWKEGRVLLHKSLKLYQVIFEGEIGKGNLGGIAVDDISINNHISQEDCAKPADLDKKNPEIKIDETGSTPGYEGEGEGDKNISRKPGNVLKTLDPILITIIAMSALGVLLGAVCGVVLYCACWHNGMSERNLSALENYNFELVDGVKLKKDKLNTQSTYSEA
Melanocortin receptor 4 (Homo sapiens), P32245, UniProt P32245, whole entry, looked up: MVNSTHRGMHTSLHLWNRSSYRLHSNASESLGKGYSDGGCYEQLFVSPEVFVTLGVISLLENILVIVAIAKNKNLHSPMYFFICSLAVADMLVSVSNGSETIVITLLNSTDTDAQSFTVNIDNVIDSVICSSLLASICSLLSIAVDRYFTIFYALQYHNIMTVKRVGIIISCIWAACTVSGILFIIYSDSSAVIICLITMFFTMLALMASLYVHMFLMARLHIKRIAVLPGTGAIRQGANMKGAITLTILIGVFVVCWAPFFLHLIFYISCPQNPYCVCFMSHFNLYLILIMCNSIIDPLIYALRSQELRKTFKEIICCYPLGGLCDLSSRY

# From PubChem BioAssay
# Sampled rows, rich in hits. Any-hit rate of the full collection: about 2.3%.
# CendR NRP1 mod: modulators of CendR peptide binding to NRP-1, primary screen, biochemical, fluorescence polarization, uHTS | Neuropilin-1 (Homo sapiens), O14786 | FAM-RPARPAR peptide binding to NRP-1 | inhibition, % at 25 µM | 360,000 compounds, 0.85% hits;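 active means inhibition or corrected inhibition above about 18%, plus a signal ratio from 0.5 to 1.5, limit read from the data, passing the limit was not always enough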
# ASAP1 GAP inh: inhibitors of human ASAP1 ArfGAP activity, primary screen, biochemical, fluorescence polarization; ASAP1-stimulated ARF1 GTP hydrolysis, GDP FP detection; inhibition, % at 16.5 µM; 360,000 compounds, 0.19% hits; AID 624377, 2012; in the data active means inhibition above about 25%
# MC4R antagonist: MC4R antagonists of cAMP signaling, primary screen, cell-based, TR-FRET, antagonist arm of biased-ligand search; 360,000 compounds, 0.48% hits; Melanocortin receptor 4 (Homo sapiens), P32245; AID 540295, 2011; MC4R-expressing cells, MTII-stimulated cAMP, LANCE TR-FRET; inhibition, % at 6.5 µM;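 active means inhibition above its plate's cutoff, the mean of tested wells on that plate plus 3 SD, cut at about 29% in these data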
#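 Material – human MC4R-expressing U2OS cells · Repeats – no replicates · Detection – TR-FRET with Eu-cAMP and labeled anti-cAMP, 671 nm · Times – compound 30 min, challenge 1 h, detection 1 h · Compound – single nominal compound dose of 6.5 µM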
# UUG fidelity: modulators of start codon recognition fidelity in yeast; activity score, % at 18.7 µM; actives 0.13% (n = 350,000); S. cerevisiae UUG-firefly luciferase reporter, luminescence/redox ratio;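 active = replicate mean at a twofold rise or more, about +100% in these data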;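 note: firefly luciferase made from a UUG start codon reports start codon fidelity; reporter light over untreated wells divided by growth signal over untreated wells; some hits fall short of that in this replicate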
# ARFGAP1 inh: inhibitors of rat ARFGAP1 GAP activity, primary screen, biochemical, fluorescence polarization, GDP tracer. Arfgap1-stimulated ARF1 GTP hydrolysis, GDP FP detection. inhibition, % at 16.5 µM. 360,000 compounds, 0.26% hits;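 active means inhibition above a per-plate limit, mean inhibition of low control wells plus 3 SD, cut at about 25% in these data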
#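 System: truncated rat Arfgap1 GAP domain / Benchmarks: high control wells lacking Arfgap1, low control full reaction with DMSO / Times: compound-enzyme preincubation 20 min, reaction 120 min, detection 60 min, 25 °C / Repeats: one replicate per compound / Also added: human ARF1(Δ1-17)-GTP substrate / Measured by: Tracer-displacement fluorescence polarization with EDTA stop, 620/688 nm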
# MC4R barr agon: MC4R agonists recruiting beta-arrestin, primary screen, cell-based, luminescence, agonist arm of biased-ligand search; U2OS MC4R beta-arrestin complementation; percent of melanotan II response, DMSO zero; 360,000 compounds, 0.98% hits; Melanocortin receptor 4 (Homo sapiens), P32245; activation, % at 8.9 µM; AID 540308, 2011;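 active means activation above a per-plate cutoff, the mean activation of sample wells on that plate plus 3 SD, cut at about 8% in these data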
# ASAP1 inh confirm: ASAP1 GAP activity inhibitors, confirmation, biochemical, fluorescence polarization, human, triplicate | shares compounds with ASAP1 GAP inh | ASAP1-stimulated Arf1 GTPase, GDP fluorescence polarization | inhibition, % at 16.5 µM | 620 compounds, 37% hits;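 active means mean inhibition over triplicates exceeds the hit threshold derived for the earlier primary screening run, cut at about 25% in these data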
# ARFGAP1 inh conf: ARFGAP1 inhibitor hit confirmation, biochemical, fluorescence polarization, triplicate | 890 compounds, 30% hits | shares compounds with ARFGAP1 inh | inhibition, % at 16.5 µM | ARFGAP1-stimulated ARF1 GTP hydrolysis, GDP tracer FP | AID 651608, 2012;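 active means average inhibition over triplicates above the hit cutoff set in the earlier primary screen, cut at about 25% in these data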
# A number is an active result; . = inactive; / = no result; + = active, no number.
SMILES,CendR NRP1 mod,ASAP1 GAP inh,MC4R antagonist,UUG fidelity,ARFGAP1 inh,MC4R barr agon,ASAP1 inh confirm,ARFGAP1 inh conf
CN1CCN(c2ccc(-c3cc(NC=O)c4ncc(-c5ccc(F)c(Cl)c5)n4c3)cc2)CC1,.,.,.,.,.,.,/,/
CC(=O)c1ccc(-c2cnc3c(NC=O)cc(-c4ccc(N5CCN(C)CC5)cc4)cn23)cc1,.,81.3,.,.,62.6,.,154.6,139.4
CC(=O)Nc1cc(-c2ccc(N3CCN(C)CC3)cc2)cn2c(-c3cccc(C(C)=O)c3)cnc12,.,53.6,.,.,37.5,.,94.6,81.8
CC(=O)N(C)C[C@H]1Oc2ncc(C#Cc3ccccc3F)cc2C(=O)N([C@H](C)CO)C[C@H]1C,/,/,/,.,/,/,/,/
CO[C@@H]1CN(C)C(=O)c2cc(NC(=O)c3ccccc3F)ccc2OC[C@@H](C)N(CC2CC2)C[C@@H]1C,/,/,/,.,/,/,/,/
Cc1noc(C)c1S(=O)(=O)Nc1ccc2c(c1)CC(=O)N([C@H](C)CO)C[C@@H](C)[C@@H](CN(C)S(=O)(=O)c1ccc(Cl)cc1)O2,/,/,/,.,/,/,/,/
Cc1cc2cc(CNC(=O)Nc3ccc(Cl)c(Cl)c3)ccc2n1C,19.0,42.0,.,.,73.7,.,.,.
CCN(CC)c1ccc(C(=O)O)cc1,.,.,.,/,.,.,/,/
CCN(CC)c1ccc(C(=C2C=CC(=[N+](CC)CC)C=C2)c2ccc(S(=O)(=O)O)cc2S(=O)(=O)[O-])cc1,.,118.8,.,.,120.9,.,118.3,131.9
CC1=CC2=NC(=O)/C(=C\c3ccc(-c4cccc(Cl)c4)o3)C(=N)N2O1,.,58.3,.,/,41.1,11.6,86.7,130.9
COc1ccc(OC)c(C=NNC(=O)NN=Cc2cc(OC)ccc2OC)c1,.,42.4,.,.,56.9,.,96.2,92.4
C[C@@H]1CN([C@H](C)CO)C(=O)c2cc(NS(=O)(=O)c3cn(C)cn3)ccc2O[C@@H](C)CCCCO[C@H]1CN(C)S(=O)(=O)c1ccccc1,/,/,/,.,/,/,/,/
Cc1ccc2nc(SCC(=O)N3CCC(Cc4ccccc4)CC3)nc(=O)n2c1,.,26.2,.,/,59.1,.,40.6,68.0
O=C(CSc1nc(=O)n2ccccc2n1)N1CCC(Cc2ccccc2)CC1,.,.,.,.,.,.,/,/
COc1ccccc1-c1csc(-n2ncc(C#N)c2N)n1,.,41.1,.,.,39.3,.,66.5,110.9
C[C@@H]1CN([C@H](C)CO)C(=O)Cc2cc(NC(=O)C3CCCCC3)ccc2O[C@H]1CN(C)Cc1ccc(Oc2ccccc2)cc1,/,/,/,.,/,/,/,/
COc1cccc(C(=O)Nc2ccc3c(c2)C(=O)N(C)[C@H]2CC[C@H](CC(=O)NCC4CC4)O[C@@H]2CO3)c1,/,/,/,.,/,/,/,/
COc1cccc(NC(=O)Cn2nnc(C(=O)Nc3cc(Cl)ccc3OC)c2N)c1,.,76.8,.,.,137.8,.,109.2,198.8
COc1ccc(Cl)cc1NC(=O)c1nnn(CC(=O)Nc2ccc(OC)c(OC)c2)c1N,.,.,.,.,.,.,/,/
O=C(NN=Cc1ccc2c(c1)OCO2)C1CC1,.,.,.,.,.,.,/,/
O=C(NN=Cc1ccc2c(c1)OCO2)NN=Cc1ccc2c(c1)OCO2,.,33.9,.,.,30.7,.,71.6,61.5
CN1\C(=C/C=C/C=C/C=[N+](C)C)C(C)(C)c2ccccc21,.,54.9,.,/,46.7,.,41.4,37.4
CCN(CC)CCOC(=O)c1ccc(N/C=C(/C#N)c2nc(-c3cc4ccccc4oc3=O)cs2)cc1,.,72.2,.,.,83.8,.,98.5,134.0
CCN(CC)CCOC(=O)c1ccc(N/C=C(/C#N)c2nc(-c3ccc(OC)cc3)cs2)cc1,.,48.5,.,/,27.8,.,51.4,55.0
CCN(CC)CCCN(C(=O)c1ccc(Br)cc1)c1nc(-c2ccc(OC)cc2)cs1,.,.,.,.,.,.,/,/
SMILES,CendR NRP1 mod,ASAP1 GAP inh,MC4R antagonist,UUG fidelity,ARFGAP1 inh,MC4R barr agon,ASAP1 inh confirm,ARFGAP1 inh conf
COc1ccccc1CN1CC[C@H]2[C@H](CO)Nc3ccc(C#Cc4ccccc4)cc3[C@H]21,/,/,/,.,/,/,/,/
N#CC1C(=O)Nc2cccnc21 (stereo unspecified),.,30.2,.,.,28.5,.,.,.
O=C1C(N2CCOCC2)=C(n2nnc3ccccc32)C(=O)c2ccccc21,.,44.4,.,.,30.8,.,.,.
COc1ccc(Cl)cc1C(=O)Nc1cccc(-c2ccc3nncn3n2)c1,.,191.3,.,/,+,.,196.0,+
C[C@@H]1CCCCO[C@H](CN(C)C(=O)Cc2ccccc2)[C@H](C)CN([C@@H](C)CO)C(=O)c2cc(NC(=O)C3CCCCC3)ccc2O1,/,/,/,.,/,/,/,/
Cn1c(=O)n(CCOc2ccc(Cl)cc2Cl)c2ccccc21,.,40.1,.,.,30.3,.,47.5,43.8
O=C(Cn1cnc2ccccc2c1=O)Nc1ccc2c(c1)OCCO2,.,.,.,.,.,.,/,/
CCCCOc1cccc2c(=O)n(CC(=O)Nc3ccc4c(c3)OCCO4)ccc12,.,34.5,.,.,25.2,.,34.1,38.3
C[C@@H]1CCCCO[C@H](CN(C)S(C)(=O)=O)[C@@H](C)CN([C@H](C)CO)C(=O)c2cc(NS(=O)(=O)c3cccs3)ccc2O1,/,/,/,.,/,/,/,/
CC(=O)Nc1ccc(NC(=O)c2ccc(-c3ccc([N+](=O)[O-])cc3)o2)cc1,.,129.8,.,.,62.1,.,164.5,+
COc1ccc(NC(=O)c2ccc(-c3ccc([N+](=O)[O-])cc3)o2)cc1OC,.,.,.,.,.,.,/,/
COc1ccc(NC(=O)c2cccc3c(-c4cccnc4)coc23)cc1,.,32.5,.,.,26.1,.,.,.
O=C(Nc1ccccc1)c1cccc2c(-c3cccnc3)coc12,.,.,.,.,.,.,/,/
